For the test, the target named is recombinant human or murine heat shock protein 70 (hsp70) (human or murine), P0DMV8. In words: binding inhibition assay as in Example 2, on hsp70.

By UniProt entry, the sequences of proteins in these tests, tags left out.
recombinant human or murine heat shock protein 70 (hsp70) (human or murine), P0DMV8, UniProt P0DMV8, whole entry: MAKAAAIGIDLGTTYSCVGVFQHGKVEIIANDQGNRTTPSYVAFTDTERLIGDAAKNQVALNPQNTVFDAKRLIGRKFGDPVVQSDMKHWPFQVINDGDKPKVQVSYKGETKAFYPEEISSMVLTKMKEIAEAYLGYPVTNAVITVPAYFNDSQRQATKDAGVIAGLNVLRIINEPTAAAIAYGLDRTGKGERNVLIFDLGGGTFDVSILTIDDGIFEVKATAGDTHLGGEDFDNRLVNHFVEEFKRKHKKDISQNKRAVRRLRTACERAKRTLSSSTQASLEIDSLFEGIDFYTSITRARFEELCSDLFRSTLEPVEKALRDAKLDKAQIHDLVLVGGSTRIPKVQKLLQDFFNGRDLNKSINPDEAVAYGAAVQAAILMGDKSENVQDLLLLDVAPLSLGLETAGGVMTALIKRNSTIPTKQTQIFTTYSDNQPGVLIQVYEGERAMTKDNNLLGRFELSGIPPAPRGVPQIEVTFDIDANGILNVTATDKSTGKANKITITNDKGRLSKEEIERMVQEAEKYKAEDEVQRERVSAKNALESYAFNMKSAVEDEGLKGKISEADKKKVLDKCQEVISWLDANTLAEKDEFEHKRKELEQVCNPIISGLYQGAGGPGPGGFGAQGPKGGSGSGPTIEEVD

From patent US20050202033A1 come the findings set out here.

B1: … (NY-ESO-1: 157-165 (165V)) (peptide)
peptide: SLLMWITQV
modifications: not checked
With B1, the Kd (usually the equilibrium constant for the complex coming apart) is 114 µM.
